SMILES strings stand for the structures. The entries are a selection whose mix differs from that of the whole data set. Some tests of the compounds listed are not included; inactive here does not mean inactive elsewhere. Records with an inconclusive call do not appear. The source made the active and inactive calls. Calls come from the whole dose curve; as a rule, active = well fitted inhibition curve with a large enough effect; inconclusive = small, poorly fitted or top-dose-only effect, or effect the other way; inactive = no such curve, though single readings can be large or run the other way.
% is set by controls: 0 for no effect and ±100 for the full control effect.

The nature of the experiment: qHTS Multiplex Assay to Identify Dual Action Probes in a Cell Model of Huntington: Aggregate Formation (GFP). Note: nearly all actives have a fitted effect of over 60% in size. To be noted: PC12 HttQ103-GFP aggregates, Acumen cytometry, 40 h; at 46.1 µM (top of the series) unless noted. (Quantitative high-throughput screening tests each substance at several concentrations.)
Consider `COc1cccc(C(=O)NCC2(N3CCCCC3)CCCCC2)c1`, for which the activity change, negative = inhibition was inactive: -12.1%.
The figure for `CN(C)c1cccc(C(=O)NCC2(N(C)C)CCCCC2)c1` is inactive: 6.82%.
The figure for `COc1ccc(Br)c(C(=O)NCC2(N3CCCCC3)CCCCC2)c1` is inactive: 6.92% [at 9.22 µM].
Regarding `O=C(OC1CN2CCC1CC2)C(CO)(c1ccccc1)c1ccccc1` (configuration not stated), the activity change, negative = inhibition was inactive: -7.64%.
With `CCN(CC)CC(C)C(C)OC(=O)C(O)(c1ccccc1)c1ccccc1` (configuration not stated), the activity change, negative = inhibition was inactive: -20.9% [at 9.22 µM].
Take `CC(C)N1C(=O)CC2(CCN(CCOC(=O)C(O)(c3ccccc3)c3ccccc3)CC2)C1=O`: the activity change, negative = inhibition is inactive: 2.67%.
Turning to `O=C(NCC1(N2CCCCC2)CCCCC1)c1cc([N+](=O)[O-])ccc1Cl`, the activity change, negative = inhibition was inactive: -30%.
The figure for `CCN1CCCC(OC(=O)C2(O)c3ccccc3C=Cc3ccccc32)C1` (configuration not stated) is inactive: -11.4%.
To `C=CCN1CCN(CCOC(=O)C(O)(c2ccccc2)c2ccccc2)CC1` belongs inactive: -6.86% [at 9.22 µM]; to `CN1CCCC(OC(=O)C(O)(c2ccccc2)c2ccccc2)C1` (configuration not stated), inactive: 1.75%.
Turning to `Cc1ccccc1C(=O)NCC1(N2CCCCC2)CCCCC1`, the activity change, negative = inhibition was inactive: 24.6%.
For `CN(C)C1CCCC1OC(=O)C(O)(c1ccccc1)c1ccccc1` (configuration not stated), the activity change, negative = inhibition is inactive: -3.58%.

Values taken from PubChem BioAssay AID1688 (National Center for Advancing Translational Sciences (NCATS), 2009).
